Results from patent publication US7192924B2, “Corticotropin releasing factor 2 receptor agonists” (priority 2002, dated 2007).

Tests used:
[1] = target: T1, CRF2R (Homo sapiens, UniProt Q13324); assay: CRF2R agonist activity (EC50, Emax), called comparative CRF binding; type: cell-based
T1 sequence (Q13324 1-411): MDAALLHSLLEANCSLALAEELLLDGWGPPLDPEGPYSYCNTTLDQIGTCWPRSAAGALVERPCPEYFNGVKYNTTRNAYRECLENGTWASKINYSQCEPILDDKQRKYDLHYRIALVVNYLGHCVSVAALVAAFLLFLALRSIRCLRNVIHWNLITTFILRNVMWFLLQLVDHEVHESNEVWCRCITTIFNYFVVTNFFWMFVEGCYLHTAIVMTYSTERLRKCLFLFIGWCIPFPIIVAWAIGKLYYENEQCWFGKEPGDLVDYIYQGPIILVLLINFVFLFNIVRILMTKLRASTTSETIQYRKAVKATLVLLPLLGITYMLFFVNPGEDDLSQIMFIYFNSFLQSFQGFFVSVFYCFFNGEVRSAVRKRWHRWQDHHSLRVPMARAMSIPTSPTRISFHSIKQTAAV
Procedure, shortened: (§1)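 Cells expressing only CRF1R or CRF2R (recombinant, or with the other receptor disabled or its signal subtracted) were treated with peptide or vehicle control. Activation was read as cAMP induction in cell lysates or via a cAMP-responsive-element reporter gene.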

[2] = target: T2, CRF1R (Homo sapiens, UniProt P34998); assay: CRF1R agonist activity (EC50, Emax), called comparative CRF binding; type: cell-based
T2 sequence (P34998 24-415): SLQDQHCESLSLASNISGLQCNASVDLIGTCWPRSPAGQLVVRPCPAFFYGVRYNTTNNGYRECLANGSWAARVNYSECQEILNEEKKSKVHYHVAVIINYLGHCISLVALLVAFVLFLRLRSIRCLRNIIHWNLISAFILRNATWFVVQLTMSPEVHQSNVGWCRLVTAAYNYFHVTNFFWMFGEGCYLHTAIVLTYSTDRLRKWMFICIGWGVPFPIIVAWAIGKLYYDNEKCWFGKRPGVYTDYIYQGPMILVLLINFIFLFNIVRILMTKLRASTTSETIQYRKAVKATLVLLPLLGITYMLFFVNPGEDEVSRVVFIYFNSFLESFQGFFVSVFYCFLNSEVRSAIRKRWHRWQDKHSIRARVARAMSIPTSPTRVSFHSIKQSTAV
Procedure, shortened: as §1

SMILES | EC50 [1] | EC50 [2] | EC50 ([1]; read-out: CRF2R EC50) | EC50 ([2]; read-out: CRF1R EC50)
CC[C@H](C)[C@H](NC(=O)[C@H](CCCNC(=N)N)NC(=O)[C@H](C)NC(=O)[C@H](CC(N)=O)NC(=O)[C@@H](NC(=O)[C@@H](NC(=O)[C@H](C)NC(=O)[C@H](CCC(N)=O)NC(=O)[C@H](CCC(N)=O)NC(=O)[C@H](CCCCN)NC(=O)[C@H](CCC(=O)O)NC(=O)[C@H](CCCCN)NC(=O)[C@H](CCC(=O)O)NC(=O)[C@H](CCC(N)=O)NC(=O)[C@H](CCCCN)NC(=O)[C@H](CCC(=O)O)NC(=O)[C@@H](NC(=O)[C@H](CCC(=O)O)NC(=O)[C@@H](NC(=O)[C@H](CCSC)NC(=O)[C@H](CCCCN)NC(=O)[C@H](CCCNC(=N)N)NC(=O)[C@H](CC(C)C)NC(=O)[C@H](CC(C)C)NC(=O)[C@H](Cc1ccc(O)cc1)NC(=O)[C@H](CC(C)C)NC(=O)[C@@H]1CCCN1C(=O)[C@H](CC(C)C)NC(=O)[C@H](CC(=O)O)NC(=O)[C@@H](NC(=O)[C@H](CO)NC(=O)[C@@H](NC(=O)[C@@H]1CCCN1C(=O)[C@@H]1CCCN1C(=O)CNC(=O)[C@@H]1CCC(=O)N1)[C@@H](C)CC)[C@@H](C)CC)[C@@H](C)CC)[C@@H](C)CC)[C@@H](C)O)[C@@H](C)O)C(=O)N[C@@H](CC(C)C)C(=O)N[C@@H](C)C(=O)N[C@@H](CCCNC(=N)N)C(=O)N[C@H](C(N)=O)C(C)C [compound 353] | 4.75 nM | 230 nM | – | –
CC[C@H](C)[C@H](NC(=O)[C@H](CCCNC(=N)N)NC(=O)[C@H](C)NC(=O)[C@H](CC(N)=O)NC(=O)[C@@H](NC(=O)[C@@H](NC(=O)[C@H](C)NC(=O)[C@H](CCC(N)=O)NC(=O)[C@H](CCC(N)=O)NC(=O)[C@H](CCCCN)NC(=O)[C@H](CCC(=O)O)NC(=O)[C@H](CCCCN)NC(=O)[C@H](CCC(=O)O)NC(=O)[C@H](CCC(N)=O)NC(=O)[C@H](CCCCN)NC(=O)[C@H](CCC(=O)O)NC(=O)[C@@H](NC(=O)[C@H](CCC(=O)O)NC(=O)[C@@H](NC(=O)[C@H](CCSC)NC(=O)[C@H](CCCCN)NC(=O)[C@H](CCCNC(=N)N)NC(=O)[C@H](CC(C)C)NC(=O)[C@H](CC(C)C)NC(=O)[C@H](CCC(N)=O)NC(=O)[C@H](Cc1ccccc1)NC(=O)[C@@H]1CCCN1C(=O)[C@@H](NC(=O)[C@H](CC(=O)O)NC(=O)[C@@H](NC(=O)[C@H](CO)NC(=O)[C@@H](NC(=O)[C@@H]1CCCN1C(=O)[C@@H]1CCCN1C(=O)CNC(=O)[C@@H]1CCC(=O)N1)[C@@H](C)CC)[C@@H](C)CC)C(C)C)[C@@H](C)CC)[C@@H](C)CC)[C@@H](C)O)[C@@H](C)O)C(=O)N[C@@H](CC(C)C)C(=O)N[C@@H](C)C(=O)N[C@@H](CCCNC(=N)N)C(=O)N[C@H](C(N)=O)C(C)C [compound 172] | 13.5 nM | ≥ 1000 nM | – | –
CC[C@H](C)[C@H](NC(=O)[C@@H](NC(=O)[C@H](CC(=O)O)NC(=O)[C@H](CC(C)C)NC(=O)[C@H](CC(C)C)NC(=O)[C@H](CC(C)C)NC(=O)[C@H](CCCNC(=N)N)NC(=O)[C@H](CC(N)=O)NC(=O)[C@H](CC(N)=O)NC(=O)[C@H](C)NC(=O)[C@H](C)NC(=O)[C@H](CCC(N)=O)NC(=O)[C@H](CCC(N)=O)NC(=O)[C@H](CCCCN)NC(=O)[C@H](CCC(=O)O)NC(=O)[C@H](CCCCN)NC(=O)[C@H](CCC(=O)O)NC(=O)[C@H](CCC(N)=O)NC(=O)[C@H](CCCCN)NC(=O)[C@H](CCC(=O)O)NC(=O)[C@@H](NC(=O)[C@H](CCC(=O)O)NC(=O)[C@@H](NC(=O)[C@H](CCSC)NC(=O)[C@H](CCCCN)NC(=O)[C@H](CCCNC(=N)N)NC(=O)[C@H](CC(C)C)NC(=O)[C@H](CC(C)C)NC(=O)[C@H](Cc1ccc(O)cc1)NC(=O)[C@H](Cc1ccccc1)NC(=O)[C@@H]1CCCN1C(=O)[C@H](CC(C)C)NC(=O)[C@H](CC(=O)O)NC(=O)[C@@H](NC(=O)[C@H](CO)NC(=O)[C@@H](NC(=O)[C@@H]1CCCN1C(=O)[C@@H]1CCCN1C(=O)CNC(=O)[C@@H]1CCC(=O)N1)[C@@H](C)CC)[C@@H](C)CC)[C@@H](C)CC)[C@@H](C)CC)[C@@H](C)O)C(N)=O [compound 85] | – | – | 2.34 nM | 11 nM

Read-outs that look alike come from different tables or passages of the source.
